Data as given in ChEMBL document CHEMBL3525957, “Stereospecific metabolism of itraconazole by CYP3A4: dioxolane ring scission of azole antifungals” (Drug Metab Dispos, 2012).

Protein sequences, listed by entry. Tags and fused reporters are not part of them.
UniProt P08684, whole entry: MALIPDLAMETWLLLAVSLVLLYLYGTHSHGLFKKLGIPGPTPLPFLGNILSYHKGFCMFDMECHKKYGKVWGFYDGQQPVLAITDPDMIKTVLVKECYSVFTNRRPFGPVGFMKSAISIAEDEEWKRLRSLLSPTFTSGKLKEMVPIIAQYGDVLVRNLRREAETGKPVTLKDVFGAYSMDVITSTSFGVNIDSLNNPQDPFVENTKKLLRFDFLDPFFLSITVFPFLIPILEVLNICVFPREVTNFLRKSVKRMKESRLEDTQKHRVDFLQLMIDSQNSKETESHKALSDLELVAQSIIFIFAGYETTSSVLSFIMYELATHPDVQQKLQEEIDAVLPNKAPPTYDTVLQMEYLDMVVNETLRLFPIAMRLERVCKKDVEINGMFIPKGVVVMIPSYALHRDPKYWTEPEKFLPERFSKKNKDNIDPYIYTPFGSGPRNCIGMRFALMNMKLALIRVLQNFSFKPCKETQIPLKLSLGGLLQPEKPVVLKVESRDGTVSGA

Target: Cytochrome P450 3A4 (Homo sapiens, UniProt P08684)
Assay: Inhibition of CYP3A4 in human liver microsomes using midazolam as substrates after 5 mins by LC/MS analysis in presence of NADPH
Format: ADME
How it was run: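 Pooled HLM (0.025 mg/ml, CYP3A5*3/*3) with midazolam 1 μM in KPi. Inhibitor range 5–1000 nM for trans isomers. 5-min preincubation at 37°C, then NADPH 1 mM final, run for 2 min. Stopped with ethyl acetate, d4-1'-OH-MDZ added as internal standard. IC50 from fit of remaining-activity equation.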

| SMILES | inhibition (INH) |
| --- | --- |
| CC[C@@H](C)n1ncn(-c2ccc(N3CCN(c4ccc(OC[C@@H]5CO[C@](Cn6cncn6)(c6ccc(Cl)cc6Cl)O5)cc4)CC3)cc2)c1=O | Dose-dependent effect |
| CC[C@@H](C)n1ncn(-c2ccc(N3CCN(c4ccc(OC[C@H]5CO[C@@](Cn6cncn6)(c6ccc(Cl)cc6Cl)O5)cc4)CC3)cc2)c1=O | Dose-dependent effect |
| CC[C@H](C)n1ncn(-c2ccc(N3CCN(c4ccc(OC[C@@H]5CO[C@](Cn6cncn6)(c6ccc(Cl)cc6Cl)O5)cc4)CC3)cc2)c1=O | Dose-dependent effect |
| CC[C@H](C)n1ncn(-c2ccc(N3CCN(c4ccc(OC[C@H]5CO[C@@](Cn6cncn6)(c6ccc(Cl)cc6Cl)O5)cc4)CC3)cc2)c1=O | Dose-dependent effect |
